Results taken from ChEMBL document CHEMBL1125721, “Highly selective kappa opioid analgesics. 4. Synthesis of some conformationally restricted naphthalene derivatives with high receptor affinity and selectivity” (1991).

Protein sequences, listed by entry. Tags and fused reporters are not part of them.
UniProt P41144, whole entry: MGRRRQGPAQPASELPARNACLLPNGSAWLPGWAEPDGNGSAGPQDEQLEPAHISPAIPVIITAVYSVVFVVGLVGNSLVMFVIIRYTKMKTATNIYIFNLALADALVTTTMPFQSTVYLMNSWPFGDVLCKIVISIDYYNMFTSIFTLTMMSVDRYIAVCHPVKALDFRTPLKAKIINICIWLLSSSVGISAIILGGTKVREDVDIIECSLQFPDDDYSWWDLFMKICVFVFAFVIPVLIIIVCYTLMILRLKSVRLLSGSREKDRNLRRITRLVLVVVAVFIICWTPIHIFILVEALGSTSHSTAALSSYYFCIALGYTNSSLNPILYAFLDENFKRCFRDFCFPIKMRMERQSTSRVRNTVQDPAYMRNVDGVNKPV
UniProt P97266, whole entry: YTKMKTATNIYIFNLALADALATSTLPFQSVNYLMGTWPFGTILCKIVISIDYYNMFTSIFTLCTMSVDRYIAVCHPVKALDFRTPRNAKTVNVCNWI

Columns and labels:
Rattus norvegicus = assay: Dose required to produce 50% of the maximum possible analgesic effect evaluated through rat paw pressure assay with the compound being administered through intravenous route.
[1] = biological target: Kappa-type opioid receptor (Cavia porcellus, UniProt P41144); assay: Opioid receptor kappa affinity, determined with [3H]etorphine in the presence of excess unlabeled [D-Ala2-MePhe4-Glyol5]-enkephalin
Mu-type opioid receptor [2] = biological target: T1, Mu-type opioid receptor (Cavia porcellus, UniProt P97266); assay: Compound was evaluated for the opioid receptor mu affinity determined with [3H][D-Ala2-MePhe4-Gly-ol5]-enkephalin (DAGOL) in the presence of excess unlabeled DAGOL to suppress mu binding.
Mu-type opioid receptor [3] = biological target: T1, Mu-type opioid receptor; assay: Compound was evaluated for the Opioid receptor mu affinity determined with [3H][D-Ala2-MePhe4-Gly-ol5]-enkephalin (DAGOL) in the presence of excess unlabeled DAGOL to suppress mu binding.

## CC1c2cccc3cccc(c23)C1C(=O)N(C)[C@H]1CCC2(CCCO2)C[C@@H]1N1CCCC1.Cl (some centres undefined)
Rattus norvegicus
  MPE50: 0.014 mg/kg

## CN(C(=O)C1CCc2c(Br)sc3cccc1c23)[C@H]1CCC2(CCCO2)C[C@@H]1N1CCCC1 (some centres undefined)
[1]
  Ki: 272 nM and 222 nM

## CC(C(=O)N(C)[C@H]1CCCC[C@@H]1N1CCCC1)c1cccc2sccc12 (some centres undefined)
[1]
  Ki: 172 nM and 361 nM and 176 nM
Mu-type opioid receptor [2]
  Ki: > 1000 nM
Mu-type opioid receptor [3]
  Ki: 2460 nM

## CC1c2cccc3cccc(c23)C1C(=O)N(C)[C@H]1CCC2(CCCO2)C[C@@H]1N1CCCC1 (some centres undefined)
[1]
  Ki: 0.37 nM
Mu-type opioid receptor [2]
  Ki: 244 nM

## CN(C(=O)C1CCc2csc3cccc1c23)[C@H]1CCC2(CCCO2)C[C@@H]1N1CCCC1 (some centres undefined)
[1]
  Ki: 11.1 nM and 4.65 nM
Mu-type opioid receptor [2]
  Ki: 62 nM and 507 nM

Values joined by “and” are separate entries in the source; they are usually repeats but may differ in a detail not shown here. Equal entries are not always repeated. Only a part of the results on these compounds is given; other tests are left out.
